Measurements reported in PMC7939391, “[4Fe-4S] cluster trafficking mediated by Arabidopsis mitochondrial ISCA and NFU proteins” (The Journal of Biological Chemistry, 2021).

Molecular target: T1, ACO2 (Arabidopsis thaliana, UniProt Q94A28)
T1 sequence (Q94A28 98-995): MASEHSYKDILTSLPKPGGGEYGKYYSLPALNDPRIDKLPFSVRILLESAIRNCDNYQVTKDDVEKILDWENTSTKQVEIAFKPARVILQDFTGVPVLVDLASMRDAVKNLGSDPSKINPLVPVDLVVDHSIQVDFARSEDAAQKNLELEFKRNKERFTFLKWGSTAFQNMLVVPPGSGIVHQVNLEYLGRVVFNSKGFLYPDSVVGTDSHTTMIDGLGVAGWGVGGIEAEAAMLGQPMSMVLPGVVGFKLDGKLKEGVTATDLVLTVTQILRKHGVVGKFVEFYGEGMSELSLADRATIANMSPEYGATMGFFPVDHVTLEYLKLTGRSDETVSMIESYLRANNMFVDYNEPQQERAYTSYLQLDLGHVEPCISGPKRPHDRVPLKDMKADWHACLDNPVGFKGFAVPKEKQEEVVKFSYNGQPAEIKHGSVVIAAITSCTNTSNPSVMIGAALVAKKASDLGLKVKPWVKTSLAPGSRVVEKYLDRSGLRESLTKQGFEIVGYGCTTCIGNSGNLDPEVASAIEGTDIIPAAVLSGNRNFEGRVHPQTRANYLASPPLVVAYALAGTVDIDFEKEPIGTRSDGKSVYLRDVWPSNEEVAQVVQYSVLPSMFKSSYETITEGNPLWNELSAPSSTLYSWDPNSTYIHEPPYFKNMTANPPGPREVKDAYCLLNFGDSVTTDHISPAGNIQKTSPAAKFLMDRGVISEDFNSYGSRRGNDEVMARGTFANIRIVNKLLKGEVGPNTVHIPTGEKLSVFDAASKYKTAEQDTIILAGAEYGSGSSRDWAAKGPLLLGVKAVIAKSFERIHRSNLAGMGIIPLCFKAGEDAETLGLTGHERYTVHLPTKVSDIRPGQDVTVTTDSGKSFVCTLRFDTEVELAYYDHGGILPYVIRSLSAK
Settings: apo-ACO2 2.4 uM; cluster from ISCA1a/2, NFU4 or NFU5; anaerobic, pH 7.8, room temperature; one cluster per monomer

## [S]12[Fe]3[S]4[Fe]1[S]1[Fe]2[S]3[Fe]41 [[4Fe-4S]^2+ cluster]
  activation of apo-enzyme, aconitase activity at 240 nm: reconstituted samples of ACO2 containing one [4Fe-4S] cluster per protein monomer
